# Yeast mating assay 1: variants of the scFv Ab-14

Target: peptide PDVDLGDISGINAS, taken from heptad repeat 2 (HR2) of SARS-CoV-2 spike.

Each scFv is VH, a (GGGGS)3 linker, VL, as in the parent Ab-14, and differs from it in the CDRs of the light chain only.
VH: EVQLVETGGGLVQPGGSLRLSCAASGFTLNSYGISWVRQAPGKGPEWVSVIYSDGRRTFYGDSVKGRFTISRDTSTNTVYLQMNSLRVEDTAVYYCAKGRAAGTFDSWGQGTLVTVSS
VL: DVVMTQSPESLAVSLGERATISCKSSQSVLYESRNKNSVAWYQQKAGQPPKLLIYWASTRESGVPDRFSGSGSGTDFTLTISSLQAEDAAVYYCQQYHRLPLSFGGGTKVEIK

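The library (AAYL50) carries one to three amino acid substitutions per variant, with no insertions or deletions. In AlphaSeq, yeast of one mating type display the scFv and yeast of the other type display the target. Pairs that bind mate more often; barcode pairs of the diploids are counted by sequencing. Each replicate has its own calibration line, from reference interactions of the BCL2 family. The assay was run in three technical replicates.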

Substitutions are numbered in sequence along the VL above, starting at 1 (not Kabat).
Kd is apparent (estimated from mating counts) and averaged on the log scale over replicates with a signal. Smaller is tighter.
"nd" means that the variant was in the library but no mating with the target was seen in any replicate; the authors take this as a sign of poor binding, and no number exists.
Nonspecific signal, from three strains lacking the peptide, appeared in 18% of pairings of library AAYL50, centred on 15 µM (5% of these signals below 970 nM); values are not corrected for it.
For reference, the parent read 4.4 nM as the reference entry and 48 nM as a member of this library.

| changes | Kd (apparent) | seen in |
|---|---|---|
| S38D/Q95Y/L100Y | 5.6 µM | 1/3 |
| S26V/R99W/P101R | 43 µM | 1/3 |
| K24E/E32Q/E61F | 2.9 nM | 3/3 |
| Y31T/P101V | 14 µM | 1/3 |
| K24D/R34K | 17 nM | 3/3 |
| Q27W/V29W/H98E | 12 nM | 3/3 |
| S33K/N37K/S38C | 3.6 µM | 2/3 |
| Y31M/A40E/S62N | nd | 0/3 |
| E32Q/R34C/W56F | 45 nM | 3/3 |
| K36N/A57F/T59Q | 1.1 µM | 2/3 |
| Q27M/L102H/S103H | nd | 0/3 |
| R60A/S62K | 67 µM | 3/3 |
| S28R/K36S/L102D | 57 µM | 2/3 |
| Q27E/W56C/Y97D | 9.6 nM | 3/3 |
| N37T/S38N/P101Q | 19 µM | 3/3 |
| Y31T/T59E | 1.6 nM | 3/3 |
| S33Q/S58P/E61C | nd | 0/3 |
| S26I/S28E/V29L | 160 nM | 3/3 |
| Q27H/R60C/Y97Q | 170 µM | 1/3 |
| S33E/R60T/Q96G | 220 nM | 3/3 |
| K36C/A57R/L102G | nd | 0/3 |
| S28F/E61L | 120 nM | 3/3 |
| S28V/T59V | 25 nM | 3/3 |
| K36D/T59F/Q96M | 3.4 µM | 3/3 |
| S28Y/T59R/Y97V | nd | 0/3 |
| Y31W/V39P/E61G | nd | 0/3 |
| Y31N/W56F/E61K | 270 nM | 1/3 |
| S28K/T59F | 7.2 µM | 1/3 |
| V39K/A40R | nd | 0/3 |
| L30Y/R34Q/R99H | 1.8 nM | 3/3 |
| N35F/R60P/L102Q | 8.1 µM | 3/3 |
| R34L/S62H/R99I | 3.8 nM | 3/3 |
| S58A/R99W/S103F | 51 µM | 1/3 |
| S28K/A57W/S58E | 83 µM | 1/3 |
| E32S/S38E/V39E | 2.8 µM | 1/3 |
| R34M/S58W/T59A | 100 nM | 3/3 |

Further variants, results first:

| Kd (apparent) | seen in | changes |
|---|---|---|
| 31 µM | 3/3 | K24G/S38W/S103K |
| 4.7 µM | 3/3 | S26K/Q27Y/Y97Q |
| 130 nM | 3/3 | N37Y/W56M/L102K |
| nd | 0/3 | S26C/N37D/E61T |
| nd | 0/3 | S33N/Q96L/P101V |
| nd | 0/3 | S25D/S26L/V39D |
| 3.3 µM | 3/3 | N37T/Y97R/S103W |
| 210 nM | 2/3 | S33R/A57S |
| 25 µM | 1/3 | N35A/R60C/R99V |
| nd | 0/3 | S26Y/E32Y/S58Y |
| 700 nM | 1/3 | S26R/Q96A |
| 16 nM | 3/3 | S25T/S28E/L30V |
| 30 nM | 3/3 | S25F/T59F/Q96G |
| 2.5 µM | 2/3 | S26I/R99M |
| 500 nM | 3/3 | L30H/E61F/Q96M |
| 250 µM | 1/3 | S28V/N35D/Y97H |
| nd | 0/3 | R60G/Q96C/P101R |
| 22 nM | 3/3 | Q27A/L30K/H98K |
| 1.3 µM | 2/3 | R34A/N37P/P101Q |
| nd | 0/3 | S28R/W56T/S103L |
| nd | 0/3 | Y31N/L100H/S103C |
| 3.4 nM | 3/3 | W56M/Q95Y/H98F |
| 740 nM | 3/3 | S26P/Y97M/L100A |
| 3.8 nM | 3/3 | S38C/Y97C/H98M |
| 65 µM | 2/3 | S25T/E32C/W56F |
| 20 nM | 3/3 | K24N/T59C |
| nd | 0/3 | S28G/P101L/L102C |
| nd | 0/3 | K24E/Q27P/P101H |
| 170 nM | 3/3 | S38W/T59E/E61V |
| nd | 0/3 | Q27R/L30K/R60Q |
| nd | 0/3 | E32G/A40D/S103W |
| 7.4 nM | 3/3 | Y31A/N35G/T59L |
| 36 nM | 3/3 | Q96E/Y97F/H98W |
| 230 µM | 1/3 | V29D/E32M/R60Q |
| nd | 0/3 | K36R/S62N |
| nd | 0/3 | K24C/Q27M/R60Y |
| 2.0 nM | 3/3 | W56G/Q96L/L100M |

The opening 11 entries, copied out:

| changes | Kd (apparent) | seen in |
|---|---|---|
| S38D/Q95Y/L100Y | 5.6 µM | 1/3 |
| S26V/R99W/P101R | 43 µM | 1/3 |
| K24E/E32Q/E61F | 2.9 nM | 3/3 |
| Y31T/P101V | 14 µM | 1/3 |
| K24D/R34K | 17 nM | 3/3 |
| Q27W/V29W/H98E | 12 nM | 3/3 |
| S33K/N37K/S38C | 3.6 µM | 2/3 |
| Y31M/A40E/S62N | nd | 0/3 |
| E32Q/R34C/W56F | 45 nM | 3/3 |
| K36N/A57F/T59Q | 1.1 µM | 2/3 |
| Q27M/L102H/S103H | nd | 0/3 |

Reference: Engelhart et al. 2022, doi:10.1038/s41597-022-01779-4. File: FLAb, binding data.